From PubChem BioAssay AID435022 (Sanford-Burnham Center for Chemical Genomics, 2010)
Only a part is listed here, and it is no random draw. Some salts or complexes appear as unconnected parts, following the source record. Activity calls are given as the source filed them. Cut-off read from the data, not from the text of the source: active = inhibition above about 35%; inactive = the rest.

Assay: inhibitors of PMA/ionomycin-induced NF-kB reporter, 697 cells, primary screen, B-cell NF-kB inhibitor project, cell-based, luminescence, uHTS (AID 435022)
Conditions: 697 B-cell NF-kB luciferase reporter, 16 h, at 4 µM, stronger effect = higher value

SMILES | inhibition
CP(=O)(OCCOc1ccccc1)OCCOc1ccccc1 | inactive: 7.11%
CP(=O)(Nc1ccc(Cl)cc1Cl)Oc1ccccc1 (configuration not stated) | inactive: 7.21%
Cc1nc2ccc3ccccc3c2o1.O=[N+]([O-])c1cc([N+](=O)[O-])c(O)c([N+](=O)[O-])c1 | inactive: 7.63%
COc1ccc(OP(C)(=O)Nc2ccccc2Br)cc1 (configuration not stated) | inactive: 8.44%
COc1ccccc1OP(C)(=O)Nc1ccc(C)c(C)c1 (configuration not stated) | inactive: 18.9%
Cc1cc(C)cc(OP(C)(=O)Nc2cccc(C(F)(F)F)c2)c1 (configuration not stated) | inactive: 17.1%
CCc1ccc(OP(C)(=O)O)cc1 | inactive: 11%
CP(=O)(Nc1ccccn1)Oc1ccccc1 (configuration not stated) | inactive: 22.9%
COc1ccccc1OP(C)(=O)Nc1ccc(C)cc1C (configuration not stated) | inactive: -2.01%
O=[N+]([O-])c1cc([N+](=O)[O-])c(Nc2ccccn2)c([N+](=O)[O-])c1 | inactive: 6.53%
Cc1c(NP(C)(=O)Oc2ccc(C(C)C)cc2)c(=O)n(-c2ccccc2)n1C (configuration not stated) | inactive: -2.72%
CN(C)CCOC(=O)C(O)(c1ccccc1)C1CCCC1 (configuration not stated) | inactive: -1.94%
COc1ccc(OP(C)(=O)Nc2ccccn2)cc1 (configuration not stated) | inactive: 13.1%
COc1ccccc1OP(C)(=O)Nc1ccc(Br)cc1 (configuration not stated) | inactive: 19.7%
CN(C)C(=O)c1c([N+](=O)[O-])cc([N+](=O)[O-])cc1[N+](=O)[O-] | inactive: 6.08%
CP(=O)(Nc1ccc(Cl)cc1)Oc1ccc(F)cc1 (configuration not stated) | inactive: -17.6%
CC(C)(C)c1ccc(OP(C)(=O)O)cc1 | inactive: -4.93%
COc1ccccc1OP(C)(=O)Nc1ccccc1Br (configuration not stated) | inactive: 21.3%
CP(=O)(Oc1ccccc1)N1CCOC1=O (configuration not stated) | inactive: -7.49%
CCc1ccc(OP(C)(=O)Nc2cccnc2)cc1 (configuration not stated) | inactive: 14%
COc1ccccc1OP(C)(=O)Nc1c(C)n(C)n(-c2ccccc2)c1=O (configuration not stated) | inactive: 7.97%
O=C(OCCCN1CCCC1)C(O)(c1ccccc1)C1CCCCC1 (configuration not stated) | inactive: 7.75%

SMILES | inhibition
CCN(CC)CC(O)COC(=O)C(O)(c1ccccc1)C1CCCCC1 (configuration not stated) | inactive: -15.6%
COc1ccc(OP(C)(=O)Nc2ccc(Br)cc2)cc1 (configuration not stated) | inactive: 25.9%
CP(=O)(OC12CC3CC(CC(C3)C1)C2)OC12CC3CC(CC(C3)C1)C2 | inactive: 10.6%
CCOC(=O)c1ccc(NP(C)(=O)Oc2ccc(Cl)cc2)cc1 (configuration not stated) | inactive: 7.58%
Nc1ccc2c(ccc3cccnc32)n1.O=[N+]([O-])c1cc([N+](=O)[O-])c(O)c([N+](=O)[O-])c1 | inactive: -16.7%
O=[N+]([O-])c1cc([N+](=O)[O-])c(NCC2CCS(=O)(=O)C2)c([N+](=O)[O-])c1 (configuration not stated) | inactive: -12.3%
COc1ccc(NP(C)(=O)Oc2ccccc2OC)cc1 (configuration not stated) | inactive: 7.63%
CN(C)CCOC(=O)C(O)(c1ccccc1)C1CCCCC1 (configuration not stated) | inactive: 14.1%
COc1ccc(OP(C)(=O)Nc2cccc(Br)c2)cc1 (configuration not stated) | inactive: 9.41%
Cc1ccccc1NP(C)(=O)Nc1ccccc1C | inactive: -14.5%
CP(=O)(Nc1ccc2c(c1)OCCO2)Oc1ccccc1 (configuration not stated) | inactive: 0.0513%
CCOP(C)(=S)SCC(=O)NC(C)(CC)C(=O)O (configuration not stated) | inactive: -16.3%
CP(=O)(Nc1ccc(SC(F)(F)F)cc1)Oc1ccc(F)cc1 (configuration not stated) | inactive: 9.77%
COc1ccc2c(c1O)-c1c(O)c(OC)cc3c1[C@H](C2)[N+](C)(C)CC3.O=[N+]([O-])c1cc([N+](=O)[O-])c([O-])c([N+](=O)[O-])c1[O-] | inactive: -9.85%
O=C(OCCN1CCN(CCOCc2ccccc2)CC1)C(O)(c1ccccc1)c1ccccc1 | inactive: 3.85%
O=C(OC1CN2CCC1CC2)c1ccc([N+](=O)[O-])cc1 (configuration not stated) | inactive: 2.18%
CC(C)c1ccc(OP(C)(=O)Nc2ccc(SC(F)(F)F)cc2)cc1 (configuration not stated) | inactive: -11.5%
CP(=O)(Nc1ccccc1F)Oc1ccccc1 (configuration not stated) | inactive: 15.8%
O=[N+]([O-])c1cc([N+](=O)[O-])c(OC2CCCCC2O)c([N+](=O)[O-])c1 (configuration not stated) | inactive: -10.6%
CCCCCOc1ccc(NP(C)(=O)Oc2ccc(Cl)cc2Cl)cc1 (configuration not stated) | inactive: 16.7%
CP(=O)(Nc1ccccc1)Oc1ccc(F)cc1 (configuration not stated) | inactive: 8.32%
CCN(CC)CCCOC(=O)C(O)(c1ccccc1)C1CCCCC1 (configuration not stated) | inactive: 1.28%

SMILES | inhibition
COc1ccc(OP(C)(=O)Nc2ccc(SC(F)(F)F)cc2)cc1 (configuration not stated) | inactive: 9.94%
CCOC(=O)c1ccc(NP(C)(=O)Oc2ccc(F)cc2)cc1 (configuration not stated) | inactive: -2.58%
CC1=NCCc2c1[nH]c1ccccc21.O=[N+]([O-])c1cc([N+](=O)[O-])c(O)c([N+](=O)[O-])c1 | inactive: 13.7%
O=C(O)c1cccc(Nc2c([N+](=O)[O-])cc([N+](=O)[O-])cc2[N+](=O)[O-])c1 | inactive: 8.77%
CP(=O)(Nc1cccc(Br)c1)Oc1ccccc1 (configuration not stated) | inactive: 16.6%
Cc1cc(C)cc(OP(C)(=O)Nc2ccccn2)c1 (configuration not stated) | inactive: 17.7%
Cc1ccc(C)c(NP(C)(=O)Oc2ccccc2)c1 (configuration not stated) | inactive: 16.8%
Cc1cc(C)cc(OP(C)(=O)Nc2ccc(C)cc2C)c1 (configuration not stated) | inactive: 1.38%
CCOC(=O)c1ccc(NP(C)(=O)Oc2cc(C)cc(C)c2)cc1 (configuration not stated) | inactive: -1.77%
COc1ccccc1OP(C)(=O)Nc1cccc(Br)c1 (configuration not stated) | inactive: 13.6%
Cc1nc2ccc3ccccc3c2s1.O=[N+]([O-])c1cc([N+](=O)[O-])c(O)c([N+](=O)[O-])c1 | inactive: -12.4%
O=[N+]([O-])c1cc([N+](=O)[O-])c(-c2cnn(-c3ccccc3)c2)c([N+](=O)[O-])c1 | inactive: 1.96%
O=[N+]([O-])c1cc([N+](=O)[O-])c(-n2nnc3ccccc32)c([N+](=O)[O-])c1 | inactive: 8.84%
CP(=O)(Nc1ccc(SC(F)(F)F)cc1)Oc1ccccc1 (configuration not stated) | inactive: 5.46%
CCCOc1ccc(NP(C)(=O)Oc2ccc(Cl)cc2)cc1 (configuration not stated) | inactive: 12.4%
COc1ccccc1OP(C)(=O)Nc1c(C)cccc1C (configuration not stated) | inactive: -11.7%
CN1CCCCC1COC(=O)C1(O)c2ccccc2CCc2ccccc21 (configuration not stated) | inactive: 10.8%
O=[N+]([O-])c1cc([N+](=O)[O-])c(Nc2nnnn2CCO)c([N+](=O)[O-])c1 | inactive: 10.7%
CC1=C2N=C(C=C3N=C(C(C)=C4[N-][C@@](C)([C@@H]5N=C1[C@](C)(CCC(=O)NC[C@@H](C)OP(=O)([O-])O[C@H]1[C@@H](O)[C@@H](n6cnc7cc(C)c(C)cc76)O[C@@H]1CO)[C@H]5CC(N)=O)[C@@](C)(CC(N)=O)[C@@H]4CCC(N)=O)[C@@](C)(CC(N)=O)[C@@H]3CCC(N)=O)C(C)(C)[C@@H]2CCC(N)=O.[C-]#N.[Co+3] | inactive: 20.9%
CCOC(=O)C(CC)C1=NC(C)(C)Cc2ccccc21.O=[N+]([O-])c1cc([N+](=O)[O-])c(O)c([N+](=O)[O-])c1 (configuration not stated) | inactive: -2.87%
COc1ccccc1OP(C)(=O)Nc1ccccc1 (configuration not stated) | inactive: -11.1%
CP(=O)(Nc1ccccc1Br)Oc1ccccc1 (configuration not stated) | inactive: 1.38%

SMILES | inhibition
CP(=S)(Nn1cnnc1)Oc1ccccc1 (configuration not stated) | inactive: -23.4%
CP(=O)(Nc1ccccn1)Oc1ccc(Cl)cc1 (configuration not stated) | inactive: 16.5%
CCOP(C)(=S)SCC(=O)NC(C)C(=O)O (configuration not stated) | inactive: 7.45%
CCOC(=O)c1ccc(NP(C)(=O)Oc2ccc(OC)cc2)cc1 (configuration not stated) | inactive: -14.8%
O=[N+]([O-])c1cc([N+](=O)[O-])c(O)c([N+](=O)[O-])c1.c1ccc(Oc2ccncc2)cc1 | inactive: -8.67%
CCc1ccc(OP(C)(=O)N2CCN(c3ccc([N+](=O)[O-])cc3)CC2)cc1 (configuration not stated) | inactive: -52.3%
CP(=O)(NC(=O)Nc1ccccc1)Oc1ccccc1 (configuration not stated) | inactive: 11.1%
Cc1cc(C)cc(OP(C)(=O)Nc2ccc(SC(F)(F)F)cc2)c1 (configuration not stated) | inactive: 3.99%
Cc1cccc(C)c1OP(C)(=O)Nc1ccc(SC(F)(F)F)cc1 (configuration not stated) | inactive: -34.5%
CP(=O)(Nc1ccc(SC(F)(F)F)cc1)Oc1ccc(Cl)cc1 (configuration not stated) | inactive: 9.04%
CP(=O)(Oc1ccccc1)OC(c1ccccc1)C(F)(F)F (configuration not stated) | inactive: 7.51%
CCN(CC)CCCOC(=O)C(O)(c1ccccc1)c1ccccc1 | inactive: 11.7%
COc1ccccc1OP(C)(=O)Nc1cc(Cl)ccc1C (configuration not stated) | inactive: 3.29%
COc1ccc(OP(C)(=O)Nc2cccc(F)c2)cc1 (configuration not stated) | inactive: 19.9%
Cc1cc(C)cc(OP(C)(N)=O)c1 (configuration not stated) | inactive: -8.12%
CCOC(=O)c1ccc(NP(C)(=O)Oc2ccccc2)cc1 (configuration not stated) | inactive: 1.17%
COc1ccccc1OP(C)(=O)Nc1ccc(C)cc1 (configuration not stated) | inactive: -5.92%
Cc1ccc(NP(C)(=O)Oc2ccccc2)c(C)c1 (configuration not stated) | inactive: 11.2%
CC(C)(C)c1ccc(OP(C)(=O)Nc2ccc(SC(F)(F)F)cc2)cc1 (configuration not stated) | inactive: 9.45%
Cc1cccc(C)c1OP(C)(N)=O (configuration not stated) | inactive: 4.89%
O=[N+]([O-])c1cc([N+](=O)[O-])c(Nc2cccnc2)c([N+](=O)[O-])c1 | inactive: 17.2%
